Reference: ChEMBL document CHEMBL5042469, “Unique Molecular Interaction with the Histone Deacetylase 6 Catalytic Tunnel: Crystallographic and Biological Characterization of a Model Chemotype” (J Med Chem, 2021)

Biological target: T1, Protein deacetylase HDAC6 (Homo sapiens, UniProt Q9UBN7)
T1 sequence (Q9UBN7 whole entry): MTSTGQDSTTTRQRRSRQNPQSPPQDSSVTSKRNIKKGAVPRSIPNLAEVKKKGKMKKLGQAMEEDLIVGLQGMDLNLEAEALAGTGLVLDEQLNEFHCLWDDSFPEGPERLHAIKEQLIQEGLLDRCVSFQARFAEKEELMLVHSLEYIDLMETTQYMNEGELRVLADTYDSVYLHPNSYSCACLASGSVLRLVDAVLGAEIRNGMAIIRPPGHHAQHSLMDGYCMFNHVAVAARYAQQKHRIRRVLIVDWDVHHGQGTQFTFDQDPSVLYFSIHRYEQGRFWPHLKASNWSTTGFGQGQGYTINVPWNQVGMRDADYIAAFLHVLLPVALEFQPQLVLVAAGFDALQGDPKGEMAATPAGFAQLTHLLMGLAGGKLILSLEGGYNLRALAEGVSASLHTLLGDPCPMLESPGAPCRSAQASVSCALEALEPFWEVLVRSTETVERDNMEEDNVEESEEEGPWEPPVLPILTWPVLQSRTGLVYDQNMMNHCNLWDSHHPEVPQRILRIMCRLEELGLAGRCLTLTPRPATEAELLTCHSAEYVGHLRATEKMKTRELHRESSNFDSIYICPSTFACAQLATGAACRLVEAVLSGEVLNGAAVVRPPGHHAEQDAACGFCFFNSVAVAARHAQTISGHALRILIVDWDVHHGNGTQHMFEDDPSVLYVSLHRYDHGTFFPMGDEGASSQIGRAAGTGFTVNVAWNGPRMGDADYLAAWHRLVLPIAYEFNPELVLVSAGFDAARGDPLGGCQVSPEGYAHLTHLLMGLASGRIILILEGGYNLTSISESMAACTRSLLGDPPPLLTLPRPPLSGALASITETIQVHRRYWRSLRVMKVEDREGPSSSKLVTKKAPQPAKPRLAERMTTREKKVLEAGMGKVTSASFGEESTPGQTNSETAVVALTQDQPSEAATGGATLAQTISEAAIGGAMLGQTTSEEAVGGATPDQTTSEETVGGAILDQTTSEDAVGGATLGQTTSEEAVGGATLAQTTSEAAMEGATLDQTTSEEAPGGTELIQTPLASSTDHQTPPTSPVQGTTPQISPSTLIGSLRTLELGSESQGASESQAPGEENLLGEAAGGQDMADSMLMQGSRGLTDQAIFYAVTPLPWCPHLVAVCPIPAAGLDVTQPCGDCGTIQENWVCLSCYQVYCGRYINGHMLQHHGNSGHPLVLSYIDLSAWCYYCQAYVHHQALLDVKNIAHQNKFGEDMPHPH
Test: Binding affinity to human HDAC6 assessed as residence time by two-step reversible inhibition model; call rule not given here

In the case of `O=C(CCCCCCNC(=O)c1cnc(N(c2ccccc2)c2ccccc2Cl)nc1)NO` [CITARINOSTAT], the IC50 is reported as “Not Active”.
